Experimental data reported in US4576625A, “Fertilizers containing urea with urease inhibitors” (Huls Aktiengesellschaft, priority 1983, dated 1986).
This is a selection: effects in other tests are not listed, and their absence says nothing.

Assay: Critical relative humidity (water activity) of fertilizer solutions
Type: physicochemical
Settings: 40% ammonium nitrate solution

Substance: ammonium nitrate
- CRH value (critical relative humidity) (10° C.): 76.5 °
- CRH value (critical relative humidity) (20° C.): 79.4%
- CRH value (critical relative humidity) (30° C.): 76.7%
